{"source": "patent US6825040B2", "about": "“Method of using a vapor acid test kit” (Mainstream Engineering Corporation, priority 1995, dated 2004)", "origin": "cited, not measured here", "details": "pH range of the indicator colour change", "note": "This is a selection: effects in other tests are not listed, and their absence says nothing.", "data": [{"smiles": "O=[N+]([O-])NCc1c([N+](=O)[O-])cc([N+](=O)[O-])cc1[N+](=O)[O-]", "values": [{"measurement": "pH Range", "value": "10.8 to 13.0"}]}]}
